Reference: PubChem BioAssay AID538 (PCMD, 2006)
This is a selection; strong and weak results do not stand in their true shares. Calls of active or inactive are those of the source.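 How the source made its calls: active means inhibition above 20% in each of the two 10-compound mixture wells holding the compound; inactive means the rest.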

Sequences of proteins named here, by UniProt entry; tags and fusion partners are left off. Residues count along the entry.
UniProt P09871, 16-437 limits assumed: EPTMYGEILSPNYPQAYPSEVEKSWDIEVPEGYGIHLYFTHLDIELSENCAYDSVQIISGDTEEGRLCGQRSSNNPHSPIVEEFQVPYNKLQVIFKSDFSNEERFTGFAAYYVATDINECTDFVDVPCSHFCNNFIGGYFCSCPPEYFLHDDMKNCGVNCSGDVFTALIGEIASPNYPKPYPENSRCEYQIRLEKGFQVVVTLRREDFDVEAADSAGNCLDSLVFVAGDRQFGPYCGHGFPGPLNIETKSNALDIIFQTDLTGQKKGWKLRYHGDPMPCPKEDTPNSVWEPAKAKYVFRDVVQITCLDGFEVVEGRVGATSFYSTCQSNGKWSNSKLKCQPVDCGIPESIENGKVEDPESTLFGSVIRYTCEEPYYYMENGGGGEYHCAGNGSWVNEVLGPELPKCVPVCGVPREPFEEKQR
UniProt P09871, 438-688 limits assumed: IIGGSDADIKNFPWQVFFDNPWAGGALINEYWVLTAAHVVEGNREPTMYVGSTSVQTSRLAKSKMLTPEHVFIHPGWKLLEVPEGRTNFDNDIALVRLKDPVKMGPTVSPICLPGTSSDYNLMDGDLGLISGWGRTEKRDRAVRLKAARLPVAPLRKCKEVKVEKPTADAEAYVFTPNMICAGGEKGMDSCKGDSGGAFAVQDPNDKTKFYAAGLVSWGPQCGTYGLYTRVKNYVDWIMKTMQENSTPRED

These compounds were tested against Complement C1s subcomponent (Homo sapiens) (UniProt P09871) (assay: complement C1s protease inhibitors, primary screen, biochemical, 10-compound mixtures (AID 538;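 further: 0% = enzyme wells lacking compound mixture and 100% = no-enzyme blank wells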)). Conditions: purified C1s, fluorogenic AMC substrate, pooled mixtures; screened at 5 µM (by protocol).

Row | SMILES | mean inhibition % of two 10-compound mixtures (active compounds read high)
1 | N/C(=N\O)c1c(N)no[n+]1[O-] | inactive: -1.81%
2 | Fc1ccccc1NC1CCN(Cc2ccccc2)CC1 | inactive: -1.82%
3 | CCC(CO)(C(=O)OC1CN2CCC1CC2)c1ccccc1 (configuration not stated) | inactive: -20.9%
4 | CCOc1ncccc1C(=O)NCC1(N2CCOCC2)CCCCC1 | inactive: 41.7%
5 | O=C(OC1CN2CCC1CC2)C1c2ccccc2Oc2ccccc21 (configuration not stated) | inactive: 5.25%
6 | COc1ccc(NC2CCN(CCc3ccccc3)CC2)c(OC)c1 | inactive: 14.8%
7 | N#CC1(Nc2ccccc2)CCN(CCc2ccccc2)CC1 | inactive: 6.54%
